Results from patent EP4831176A1, “BICYCLIC FUSED HETEROAROMATIC RING DERIVATIVE, AND PHARMACEUTICAL COMPOSITION AND USE THEREOF” (dated 2026).

Experiment: In vivo pharmacokinetic study in mice (LC/MS/MS of plasma)
Conditions: male ICR mice; for Drug elimination half-life T1/2 / Drug exposure AUC0-inf / Maximum drug concentration Cmax / Time to peak concentration Tmax: plasma, study IV 2 mg/kg and PO 10 mg/kg, route of this parameter not given; for Oral bioavailability F: IV 2 mg/kg, PO 10 mg/kg
From the text: LC/MS/MS method was used to determine the drug concentrations in mouse plasma at different time points after intravenous injection and oral gavage administration of the compounds of the present application. The pharmacokinetic behavior of the compounds of the present application in mice was studied to evaluate their pharmacokinetic characteristics.
1. Experimental protocol: Test animals: Healthy adult male ICR mice, weighing 25-40 g, 6 mice. All mice had free access to food and water. Supplied by Beijing Vital River Laboratory Animal Technology Co., Ltd. Minimum of 3 days adaptation period, SPF area room, indoor temperature maintained at 20-26°C, indoor relative humidity maintained at 40-70%. Illuminated with fluorescent lamps, 12-hour light (08:00-20:00) and 12-hour dark, 2-5 mice per cage (same administration group). Unlimited access to feed (irradiated sterilized, Shaanxi Qinle Pharmaceutical Chemical Co., Ltd., China) and water (tap water purified by ultrapure water filtration system).
2. Animal experiment formulation: • 2.1. 10% DMSO / 40% PEG400 / 5% Tween 80 / 45% saline • 2.1.1 Vehicle formulation preparation: N/A • 2.1.2 Administration formulation preparation: Intravenous injection group: an appropriate amount of API powder was accurately weighed, added to 10% of the final volume of DMSO, and shaken and sonicated to ensure complete dissolution. After dissolution, 40% of the formulation volume of PEG400 and 5% of the formulation volume of Tween 80 were added, followed by vortexing or sonication. Finally, 45% of the formulation volume of saline was added to obtain a clear, transparent solution at a concentration of 0.5 mg/mL. • 2.2 10% HP-β-CD and 50 mM Citrate buffer in water (pH 4.0) • 2.2.1 Vehicle formulation preparation: • 50 mM Citrate buffer solution (pH 4.0): 1.92 g of anhydrous citric acid was weighed and added to 100 mL of purified water, stirred to dissolve, yielding a 100 mM citric acid solution. Separately, 2.94 g of sodium citrate was weighed and added to 100 mL of water, yielding a 100 mM sodium citrate solution. 33 mL of the 100 mM citric acid solution was taken, mixed with 17 mL of the 100 mM sodium citrate solution, mixed well, and diluted to 100 mL to obtain 50 mM citrate buffer at pH 4.0. • 10% HP-β-CD (Hydroxypropyl-β-cyclodextrin) and 50 mM Citrate buffer (pH 4.0) solution: 10 g of hydroxypropyl-β-cyclodextrin was accurately weighed and added to 100 mL of 50 mM Citrate buffer (pH 4.0) aqueous solution, and sonicated to ensure complete dissolution. • 2.2.2 Administration formulation preparation: Oral gavage group: an appropriate amount of API powder was accurately weighed, added to the final volume of 10% HP-β-CD and 50 mM Citrate in water (pH 4.0) solution, and shaken and sonicated to ensure complete dissolution. The mixture was then disrupted using a cell disruptor for 1 minute to obtain a clear, transparent or suspended solution at a concentration of 1 mg/mL. 3. Administration method: before administration, animals meeting the experimental requirements were selected, weighed, and marked. ICR mice were administered 2 mg/kg via tail vein injection and 10 mg/kg via oral gavage. 4. Sample Collection: before sampling, mice were restrained. Blood was collected from each dosed mouse via the submandibular vein at predetermined time points (IV administration: 0.083h, 0.25h, 0.5h, 1h, 2h, 4h, 7h, 24h, 30h, and 48h post-dose, totaling 10 time points; Oral gavage administration: 0.083h, 0.25h, 0.5h, 1h, 2h, 4h, 7h, 24h, 30h, and 48h post-dose, totaling 10 time points), approximately 80 µL of blood was collected each time. The blood was transferred to a 1.5 mL tube pre-filled with K2EDTA, and centrifuged (Eppendorf, Centrifuge 5804R) for 3 min (10000 rpm, 4°C) to separate plasma. The entire process was completed within 15 minutes after blood collection. All samples were stored in a -20°C freezer (Panasonic) until sample analysis. 5. […]

| Drug elimination half-life T1/2 [h] | Drug exposure AUC0-inf [ng·h/mL] | Maximum drug concentration Cmax [ng/mL] | Time to peak concentration Tmax [h] | Oral bioavailability F [%] | SMILES |
| --- | --- | --- | --- | --- | --- |
| 5.6 | 20215 | 1360 | 5.0 | 35.8 | Cn1nc(C2CCC(=O)NC2=O)c2ccc(N3CC4(CC(CN5CCC(n6cc(-c7cnc(NCc8c(F)ccc9c8CCO9)n8cnc(Cl)c78)cn6)CC5)C4)C3)cc21 (stereo not shown) |
| 5.1 | 16610 | 1131 | 4.0 | 82.9 | Cn1nc(C2CCC(=O)NC2=O)c2ccc(N3CCC(CN4CCC(n5cc(-c6cnc(NCc7c(F)ccc8c7CCO8)n7cnc(Cl)c67)cn5)CC4)CC3)cc21 (stereo not shown) |
| 6.9 | 14508 | 819 | 6.0 | 41.0 | Cn1nc(C2CCC(=O)NC2=O)c2ccc(N3CCC(CN4CCC(n5cc(-c6cnc(NCc7c(F)ccc8c7CCO8)n7cnc(Cl)c67)c(F)n5)CC4)CC3)cc21 (stereo not shown) |
| 4.4 | 17646 | 1150 | 7.0 | 65.1 | Cn1nc(C2CCC(=O)NC2=O)c2cc(F)c(N3CCC(CN4CCC(n5cc(-c6cnc(NCc7c(F)ccc8c7CCO8)n7cnc(Cl)c67)cn5)CC4)CC3)cc21 (stereo not shown) |
| 13.4 | 13748 | 491 | 7.0 | 46.6 | Cn1nc(C2CCC(=O)NC2=O)c2ccc(N3CCC(CN4CCC(c5ccc(-c6cnc(NCc7c(F)ccc8c7CCO8)n7cnc(F)c67)cc5)CC4)CC3)cc21 (stereo not shown) |
| 4.2 | 13186 | 1031 | 4.0 | 33.8 | Cn1nc(C2CCC(=O)NC2=O)c2ccc(N3CCC(CN4CCC(c5ccc(-c6cnc(NCc7c(F)ccc8c7CCO8)n7cnc(Cl)c67)nn5)CC4)CC3)cc21 (stereo not shown) |
| 6.0 | 16675 | 1310 | 4.0 | 61.4 | Cn1nc(C2CCC(=O)NC2=O)c2ccc(N3CCC(CN4CCC(c5ncc(-c6cnc(NCc7c(F)ccc8c7CCO8)n7cnc(Cl)c67)cn5)CC4)CC3)cc21 (stereo not shown) |
| 5.9 | 11637 | 721 | 6.0 | 40.9 | Cc1nc(C2CCN(CC3CN(c4ccc5c(C6CCC(=O)NC6=O)nn(C)c5c4)C3)CC2)ccc1-c1cnc(NCc2c(F)ccc3c2CCO3)n2cnc(Cl)c12 (stereo not shown) |
| 10.88 | 2992 | 90.5 | 4.0 | 11.49 | O=C1CCC(N2Cc3cc(N4CCC(CN5CCC(n6cc(-c7cnc(NCc8c(F)ccc9c8CCO9)n8cnc(Cl)c78)cn6)CC5)CC4)ccc3C2=O)C(=O)N1 (stereo not shown) |
| 4.0 | 3236 | 269 | 4.3 | 18.4 | Cn1nc(C2CCC(=O)NC2=O)c2ccc(N3CCC(CN4CCC(n5cc(-c6cnc(NCc7c(F)ccc8c7CCO8)n7cnnc67)cn5)CC4)CC3)cc21 (stereo not shown) |
| 5.1 | 12456 | 808 | 6.0 | 51.4 | Cn1nc(C2CCC(=O)NC2=O)c2ccc(N3CCC(CN4CCC(c5cnc(-c6cnc(NCc7c(F)ccc8c7CCO8)n7cnc(Cl)c67)cn5)CC4)CC3)cc21 (stereo not shown) |
| 4.0 | 13258 | 909 | 7.0 | 38.8 | Cn1nc(C2CCC(=O)NC2=O)c2ccc(N3CCC(CN4CCC(n5cc(-c6cnc(NCc7c(F)ccc8c7CCO8)n7cnc(Cl)c67)cn5)CC4)CC3)nc21 (stereo not shown) |
| 4.8 | 10730 | 814 | 3.3 | 65.1 | Cn1nc(C2CCC(=O)NC2=O)c2ccc(N3CCC(CN4CCC(n5cc(-c6cnc(NCc7c(F)ccc8c7CCO8)n7cnc(F)c67)cn5)CC4)CC3)cc21 (stereo not shown) |
| 10.2 | 34773 | 1364 | 7.0 | 61.1 | Cn1nc(C2CCC(=O)NC2=O)c2ccc(N3CCC(CN4CCC(c5ccc(-c6cnc(NCc7c(F)ccc8c7CCO8)n7cnc(Cl)c67)cc5)CC4)CC3)cc21 (stereo not shown) |
| 5.7 | 8559 | 548 | 7.0 | 24.0 | Cn1nc(C2CCC(=O)NC2=O)c2ccc(N3CCC(CN4CCC(n5cc(-c6cnc(NCc7c(F)ccc8c7CCO8)n7cc(C#N)nc67)cn5)CC4)CC3)cc21 (stereo not shown) |
| 4.2 | 17788 | 1553 | 1.3 | 73.6 | O=C1CCC(Nc2ccc(N3CCN(C4CCN(Cc5ncc(-c6cnc(NCc7c(F)ccc8c7CCO8)n7cnc(Cl)c67)cn5)CC4(F)F)CC3)c(F)c2)C(=O)N1 (stereo not shown) |
| 6.8 | 18218 | 1250 | 5.0 | 23.7 | Cn1nc(C2CCC(=O)NC2=O)c2ccc(N3CCC(CN4CCC(c5ccc(-c6cnc(NCc7c(F)ccc8c7CCO8)n7cnc(Cl)c67)nc5)CC4)CC3)cc21 (stereo not shown) |
| 4.5 | 19631 | 1370 | 5.3 | 71.6 | Cn1nc(C2CCC(=O)NC2=O)c2ccc(N3CCC(CN4CCC(n5cnc(-c6cnc(NCc7c(F)ccc8c7CCO8)n7cnc(Cl)c67)n5)CC4)CC3)cc21 (stereo not shown) |
| 6.6 | 203 | 20 | 2.7 | 1.3 | Cc1nc(C2CCN(CC3CCN(c4ccc5c(C6CCC(=O)NC6=O)nn(C)c5c4)CC3)CC2)ccc1-c1cnc(NCc2c(F)ccc3c2CCO3)n2cnnc12 (stereo not shown) |
| 12.3 | 11332 | 445 | 7.0 | 34.2 | Cn1nc(C2CCC(=O)NC2=O)c2ccc(N3CCC(CN4CCC(c5ccc(-c6cnc(NCc7c(F)ccc8c7CCO8)n7cnnc67)cc5)CC4)CC3)cc21 (stereo not shown) |
